Laboratory results from US11274118B2 (priority 2012, dated 2022).

Tested on: cerebral edema in rats following bilateral cortical contusion
Assay: Cerebral edema assay after bilateral cortical contusion
Format: in vivo, rat
Details: i.v. at 4 mg/kg

SMILES: CC(=O)[C@H]1CC[C@H]2[C@@H]3CCC4=C/C(=N/O)CC[C@]4(C)[C@H]3CC[C@]12C [Compound 2, 1-((8S,9S,10R,13S,14S,17S,E)-3-(Hydroxyimino)-10,13-dimethyl-2,3,6,7,8,9,10,11,12,13,14,15,16,17-tetradecahydro-1H-cyclopenta[a]phenanthren-17-yl)ethanone]
- therapeutic benefit in model of rat edema (TBI induced): comparable to progesterone
